Chains of the proteins cited; added tags and fusions are not shown.
UniProt P35372, whole entry: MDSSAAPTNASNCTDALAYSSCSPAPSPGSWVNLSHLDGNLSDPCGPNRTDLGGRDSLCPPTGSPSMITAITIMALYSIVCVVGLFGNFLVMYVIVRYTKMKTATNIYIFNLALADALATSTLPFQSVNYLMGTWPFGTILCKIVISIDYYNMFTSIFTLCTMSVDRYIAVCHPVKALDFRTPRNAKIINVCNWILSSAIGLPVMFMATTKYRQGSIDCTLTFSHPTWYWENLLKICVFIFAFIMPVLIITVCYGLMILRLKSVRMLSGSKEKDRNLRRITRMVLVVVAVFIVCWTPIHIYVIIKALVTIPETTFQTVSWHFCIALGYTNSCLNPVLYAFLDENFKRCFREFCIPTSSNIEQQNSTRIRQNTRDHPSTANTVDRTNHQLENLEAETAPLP

In BindingDB's records for PubMed 8114680 (University of Pennsylvania, 1994):

Molecular target: Mu-type opioid receptor (Homo sapiens, UniProt P35372)

Q: With CCC12CCN(CC3(O)CC3)C(Cc3ccc(O)cc31)C2(C)C (stereo unspecified) as the molecule, how does the Ki read?
A: The Ki was 0.75 nM.
